# scFv variants of Ab-14 (light chain) against a SARS-CoV-2 spike peptide

All variants were tested on one target, the spike HR2 peptide PDVDLGDISGINAS (SARS-CoV-2).

Parent scFv Ab-14: VH joined to VL by a (GGGGS)3 linker. Changes lie in the light chain CDRs alone.
VH: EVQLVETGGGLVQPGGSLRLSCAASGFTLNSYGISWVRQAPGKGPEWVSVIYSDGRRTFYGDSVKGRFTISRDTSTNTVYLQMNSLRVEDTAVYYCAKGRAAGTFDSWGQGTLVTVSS
VL: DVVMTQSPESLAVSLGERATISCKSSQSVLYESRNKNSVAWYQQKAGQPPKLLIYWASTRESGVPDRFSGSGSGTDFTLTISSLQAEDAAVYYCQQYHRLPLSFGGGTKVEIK

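The starting antibody came from a phage panning campaign against this peptide. These sequences belong to a second round, designed from the earlier measurements on random variants of the parent. Several design methods are mixed in this list. AlphaSeq pools MATa yeast showing the antibodies with MATalpha yeast showing the peptide. Mating (16 h, 30 °C) was followed by selection of diploids and sequencing of their barcodes. Scores were corrected for input abundance and mapped to Kd with protein pairs of known affinity run in the same pool. The assay was run in six technical replicates.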

Variants are written as CDR1, CDR2 and CDR3 of the light chain (limits as in the source). Parent: KSSQSVLYESRNKNSVA, WASTRES, QQYHRLPLS. Values are apparent Kd, the geometric mean of the replicates that gave a signal; lower means stronger binding. An entry "no signal" has no value in the source: the pair was not observed among the diploids in any replicate. This suggests poor binding but is not conclusive.

{"CDR-L1": "MFSTNLHDMGANKHSVA", "CDR-L2": "DMAEVTG", "CDR-L3": "QDYHRLPLS", "apparent Kd": "no signal", "replicates with signal": "0 of 6"}
{"CDR-L1": "KLSQSMLYESRNKNSVA", "CDR-L2": "NASLRES", "CDR-L3": "QQYHRLPLS", "apparent Kd": "400 pM", "replicates with signal": "6 of 6"}
{"CDR-L1": "KIMQSQLGESRNVNSVA", "CDR-L2": "NASTRES", "CDR-L3": "QQYHRLPLS", "apparent Kd": "1.4 nM", "replicates with signal": "6 of 6"}
{"CDR-L1": "KFSGSHLYESRMGNSVA", "CDR-L2": "NASQRED", "CDR-L3": "QQYHRLPLS", "apparent Kd": "700 pM", "replicates with signal": "6 of 6"}
{"CDR-L1": "KLMQEDEYQSRMKNSVA", "CDR-L2": "HASERES", "CDR-L3": "QQYHRLPLS", "apparent Kd": "1.1 nM", "replicates with signal": "6 of 6"}
{"CDR-L1": "HMSMLTMMGMRQRNSVA", "CDR-L2": "QMTTREN", "CDR-L3": "QQYDRLPLM", "apparent Kd": "5.6 nM", "replicates with signal": "6 of 6"}
{"CDR-L1": "KLQQSKEYLSRWKNSVA", "CDR-L2": "HASVREV", "CDR-L3": "QQYHRLPLS", "apparent Kd": "79 nM", "replicates with signal": "6 of 6"}
{"CDR-L1": "KIGMTLNQLMHKKNNVA", "CDR-L2": "DLVMRAN", "CDR-L3": "QQYFRLPLS", "apparent Kd": "4.3 nM", "replicates with signal": "6 of 6"}
{"CDR-L1": "KLSQSVLYESRNKNSVA", "CDR-L2": "NASTRES", "CDR-L3": "QQYHRLPLK", "apparent Kd": "1.1 nM", "replicates with signal": "6 of 6"}
{"CDR-L1": "KISQMVWYESTWMNAIA", "CDR-L2": "QTSTREE", "CDR-L3": "QQYHRLPLS", "apparent Kd": "2.0 nM", "replicates with signal": "6 of 6"}
{"CDR-L1": "HMSMLTLQGLRHRNSVA", "CDR-L2": "QMTTRVN", "CDR-L3": "QQYDRLPLS", "apparent Kd": "200 nM", "replicates with signal": "5 of 6"}
{"CDR-L1": "KISQMSTIESIVHNSVA", "CDR-L2": "QTSTRES", "CDR-L3": "QQYDRLPLS", "apparent Kd": "14 nM", "replicates with signal": "6 of 6"}
{"CDR-L1": "HSSPSVLYESRNKNSVA", "CDR-L2": "NASTREE", "CDR-L3": "QQYHRLPLQ", "apparent Kd": "830 pM", "replicates with signal": "6 of 6"}
{"CDR-L1": "KRSQQVLIESRNKNSVA", "CDR-L2": "KASTRES", "CDR-L3": "QQYHRLPLS", "apparent Kd": "14 nM", "replicates with signal": "6 of 6"}
{"CDR-L1": "KSSQSVPYESQNKNSVA", "CDR-L2": "WADTRSK", "CDR-L3": "QDYHRLPLS", "apparent Kd": "no signal", "replicates with signal": "0 of 6"}
{"CDR-L1": "KISQNMGETQKNKHSVA", "CDR-L2": "EVSLVPS", "CDR-L3": "QQYWRLPLS", "apparent Kd": "22 nM", "replicates with signal": "2 of 6"}
{"CDR-L1": "KVSQSVLYESHNKNSVA", "CDR-L2": "WASTRES", "CDR-L3": "QQYHRLPLS", "apparent Kd": "3.8 nM", "replicates with signal": "6 of 6"}
{"CDR-L1": "MMSQVTGMESRQRNNVA", "CDR-L2": "QTSTREA", "CDR-L3": "QQYDRLPLI", "apparent Kd": "1.0 nM", "replicates with signal": "6 of 6"}
{"CDR-L1": "KLQQSWGYQSRNKNSVA", "CDR-L2": "NASTREW", "CDR-L3": "QQYHRLPLS", "apparent Kd": "18 nM", "replicates with signal": "6 of 6"}
{"CDR-L1": "DASQSWLYESRNKNSVA", "CDR-L2": "GASTRES", "CDR-L3": "QQYHRLPLS", "apparent Kd": "520 pM", "replicates with signal": "6 of 6"}
{"CDR-L1": "KFSQSWLYEQRQVNSVA", "CDR-L2": "NASQRLL", "CDR-L3": "QQYHRLPLS", "apparent Kd": "1.7 nM", "replicates with signal": "6 of 6"}
{"CDR-L1": "QIDSFYQHGTDAKKAMA", "CDR-L2": "DVSVRTQ", "CDR-L3": "QQYSRLPLS", "apparent Kd": "2.3 nM", "replicates with signal": "6 of 6"}

2 of these entries, quoted again:

CDR-L1	CDR-L2	CDR-L3	apparent Kd	replicates with signal
KSSQSVPYESQNKNSVA	WADTRSK	QDYHRLPLS	no signal	0 of 6
DASQSWLYESRNKNSVA	GASTRES	QQYHRLPLS	520 pM	6 of 6

The parent sequence was in this pool as ten entries: three were never detected, three once, and four in most replicates, with averages from 2.2 nM to 240 nM. The authors averaged sequences with at least three values out of six and counted those with two or fewer as poor binders. As a blank, each scFv also met three strains without target: over all light chain designs, 4% of these pairings were detected, typically at 430 nM and seldom below 38 nM. The range of this assay differs from that of the first round, and the authors advise against merging the two.

Reference: Li et al. 2023, doi:10.1038/s41467-023-39022-2. File: FLAb, binding data.